Data: paper PMC5565203 (Journal of medicinal chemistry, 2015)

The chains behind the UniProt entries cited, without tags or fusion partners. Residues count along the entry.
UniProt Q07820, 172-327: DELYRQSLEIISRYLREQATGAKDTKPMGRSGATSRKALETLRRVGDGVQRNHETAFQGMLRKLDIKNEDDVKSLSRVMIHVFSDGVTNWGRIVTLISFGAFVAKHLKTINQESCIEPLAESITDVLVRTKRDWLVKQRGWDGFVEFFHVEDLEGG
UniProt Q07817, whole entry, species assumed: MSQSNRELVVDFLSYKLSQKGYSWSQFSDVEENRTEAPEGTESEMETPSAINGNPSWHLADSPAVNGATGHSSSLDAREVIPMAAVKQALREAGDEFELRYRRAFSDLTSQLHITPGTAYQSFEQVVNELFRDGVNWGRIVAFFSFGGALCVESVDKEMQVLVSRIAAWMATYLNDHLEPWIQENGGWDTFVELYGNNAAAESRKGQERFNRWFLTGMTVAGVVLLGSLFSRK
UniProt P10415, whole entry, species assumed: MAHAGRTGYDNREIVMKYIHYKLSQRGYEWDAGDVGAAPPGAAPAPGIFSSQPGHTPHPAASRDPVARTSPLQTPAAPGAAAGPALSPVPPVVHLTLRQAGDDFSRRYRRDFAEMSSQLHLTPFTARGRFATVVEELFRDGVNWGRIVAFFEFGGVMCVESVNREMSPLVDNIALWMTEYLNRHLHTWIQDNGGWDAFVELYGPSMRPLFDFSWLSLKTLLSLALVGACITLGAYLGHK

How the values were obtained:
human Mcl-1 = human Mcl-1 (Homo sapiens, UniProt Q07820); assay: FPA competition assay, displacement of FITC-Bak-BH3 peptide from Mcl-1; conditions: binding to Mcl-1
Bcl-xL = Bcl-xL (Homo sapiens, UniProt Q07817); conditions: ratio of Ki values
Bcl-2 = Bcl-2 (Homo sapiens, UniProt P10415); conditions: ratio of Ki values

Compound: Cc1cc(OCCCc2c(C(=O)O)n3c4c(c(Cl)ccc24)CCC3)cc(C)c1Cl [Compound 34, 7-chloro-1-(3-(4-chloro-3,5-dimethylphenoxy)propyl)-5,6-dihydro-4H-pyrrolo[3,2,1-ij]quinoline-2-carboxylic acid]
- LE (ligand efficiency) (human Mcl-1): 0.40
- binding selectivity for Mcl-1 over Bcl-xL (Bcl-xL): > 1700 fold
- binding selectivity for Mcl-1 over Bcl-2 (Bcl-2): > 100 fold

Compound: Cc1cc(OCCCc2c(C(=O)O)n3c4c(c(Cl)ccc24)OCC3)cc(C)c1Cl [Compound 35, 9-Chloro-6-(3-(4-chloro-3,5-dimethylphenoxy)propyl)-2,3-dihydro-[1,4]oxazino[2,3,4-hi]indole-5-carboxylic acid]
- binding selectivity for Mcl-1 over Bcl-xL (Bcl-xL): > 1700 fold
- binding selectivity for Mcl-1 over Bcl-2 (Bcl-2): > 100 fold
